Experimental data: ChEMBL document CHEMBL3886247, “Aurora and FLT3 kinases modulators” (2015)

Target: T1, Aurora kinase A (Homo sapiens, UniProt O14965)
T1 sequence (O14965 whole entry): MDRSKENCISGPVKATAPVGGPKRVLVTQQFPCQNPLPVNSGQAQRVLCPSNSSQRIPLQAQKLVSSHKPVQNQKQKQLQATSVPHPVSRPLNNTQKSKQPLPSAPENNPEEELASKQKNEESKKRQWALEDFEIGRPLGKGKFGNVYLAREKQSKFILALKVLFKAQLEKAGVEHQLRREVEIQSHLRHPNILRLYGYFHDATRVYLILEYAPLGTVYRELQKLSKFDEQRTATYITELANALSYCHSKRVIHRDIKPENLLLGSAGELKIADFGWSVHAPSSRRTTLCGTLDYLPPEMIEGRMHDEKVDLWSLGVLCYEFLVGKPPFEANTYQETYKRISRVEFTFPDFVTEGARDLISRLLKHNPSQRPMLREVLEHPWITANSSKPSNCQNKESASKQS
Test: Inhibition Assay: Kinase assays were performed at Reaction Biology Corp., Malvern, Pa., USA, using the following general procedure:1) Prepare indicated substrate in freshly prepared Base Reaction Buffer (20 mM Hepes pH 7.5, 10 mM MgCl2, 1 mM EGTA, 0.02% Brij35, 0.02 mg/ml BSA, 0.1 mM Na3VO4, 2 mM DTT, 1% DMSO).2) Deliver cofactors (1.5 mM CaCl2, 16 ug/mL Calmodulin, 2 mM MnCl2) to the substrate solution above.3) Deliver indicated kinase into the substrate solution and gently mix4) Deliver varying concentrations of test compound in DMSO into the kinase reaction mixture.5) Deliver 33P-ATP (specific activity 0.01 uCi/uL final) into the reaction mixture to initiate the reaction.6) Incubate kinase reaction for 120 min at room temperature.7) Reactions are spotted onto P81 ion exchange filter paper (Whatman #3698-915)8) Unbound phosphate is removed by washing filters extensively in 0.75% phosphoric acid.9) 33P signal was determined using Typhoon phosphorimagers (GE Healthcare).

Question: For CCc1ccc(-c2nc(C(N)=O)c(-c3ccc(N4CCNC(C)(C)C4)cc3)o2)c2cc[nH]c12, which IC50 is on record?
Answer: The IC50 was 0.0743 µM.
